Source: paper PMC10307939 (Pharmacology Research & Perspectives, 2023)

Protein sequences, listed by entry. Tags and fused reporters are not part of them.
UniProt P42866, whole entry: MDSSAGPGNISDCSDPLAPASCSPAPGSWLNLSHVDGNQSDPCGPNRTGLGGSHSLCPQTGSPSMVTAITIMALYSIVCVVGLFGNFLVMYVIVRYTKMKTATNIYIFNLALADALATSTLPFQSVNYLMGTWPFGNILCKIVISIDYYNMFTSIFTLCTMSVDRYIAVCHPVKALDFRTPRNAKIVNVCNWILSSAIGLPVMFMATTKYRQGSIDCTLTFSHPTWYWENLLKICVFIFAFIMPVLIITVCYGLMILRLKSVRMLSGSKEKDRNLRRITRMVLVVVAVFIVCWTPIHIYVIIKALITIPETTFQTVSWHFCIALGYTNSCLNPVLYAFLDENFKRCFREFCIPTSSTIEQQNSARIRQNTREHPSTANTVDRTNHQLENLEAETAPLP

Target: mouse mu‐opioid receptor (Mus musculus, UniProt P42866)
Test: Ligand‐stimulated [35S]GTPγS binding, mMOR‐CHO membranes
Assay type: biochemical
Conditions: MOR‐CHO cells

## DAMGO [reference compound]
  Full agonist stimulation (% over basal): 473.5% ± 7.2
